Data from patent publication US20050239874A1, “Novel analgesic and immunomodulatory cannabinoids” (University of Connecticut, priority 1998, published 2005).

Chains of the proteins cited; added tags and fusions are not shown.
UniProt P20272, whole entry: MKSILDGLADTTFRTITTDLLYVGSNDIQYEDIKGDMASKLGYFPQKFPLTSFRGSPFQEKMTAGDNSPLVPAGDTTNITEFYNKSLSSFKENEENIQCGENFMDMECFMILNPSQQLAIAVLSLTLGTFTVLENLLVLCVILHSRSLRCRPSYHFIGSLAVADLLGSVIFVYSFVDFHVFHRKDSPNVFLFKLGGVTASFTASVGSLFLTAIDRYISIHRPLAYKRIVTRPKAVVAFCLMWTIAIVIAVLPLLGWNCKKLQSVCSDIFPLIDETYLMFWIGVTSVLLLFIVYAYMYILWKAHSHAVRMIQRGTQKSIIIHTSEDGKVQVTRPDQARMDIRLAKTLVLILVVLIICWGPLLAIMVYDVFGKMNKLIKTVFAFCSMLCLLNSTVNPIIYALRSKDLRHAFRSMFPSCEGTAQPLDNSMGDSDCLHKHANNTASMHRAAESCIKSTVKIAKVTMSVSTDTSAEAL
UniProt P47936, whole entry: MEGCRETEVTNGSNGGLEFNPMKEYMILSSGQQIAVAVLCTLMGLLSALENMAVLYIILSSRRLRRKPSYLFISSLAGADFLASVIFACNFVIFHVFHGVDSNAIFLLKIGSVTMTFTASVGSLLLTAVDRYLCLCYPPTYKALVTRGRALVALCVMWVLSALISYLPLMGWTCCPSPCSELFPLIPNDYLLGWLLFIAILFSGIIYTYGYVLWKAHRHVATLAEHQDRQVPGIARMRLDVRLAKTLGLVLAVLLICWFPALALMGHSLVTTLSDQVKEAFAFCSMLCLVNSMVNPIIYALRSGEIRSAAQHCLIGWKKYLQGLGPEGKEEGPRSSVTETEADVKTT

Columns and labels:
CB1 receptor = CB1 receptor (Rattus norvegicus, UniProt P20272); test: Radioligand binding assay ([3H]CP-55,940 displacement), rat forebrain membranes as source of CB1; conditions: read-out: Ki in nM for the CB1 Receptor, 0.8 nM [3H]CP-55,940, Ki from IC50 by Cheng and Prusoff
CB2 receptor = CB2 receptor (Mus musculus, UniProt P47936); test: Radioligand binding assay ([3H]CP-55,940 displacement), mouse spleen as source of CB2; conditions: read-out: Ki in nM for the CB2 Receptor, Ki from IC50 by Cheng and Prusoff
Procedure: Approximately 30 μg of tissue was incubated in silanized 96 well microtiter plate with TME containing 0.1% essentially fatty acid free bovine serum albumin (BSA), 0.8 nM CH^3]CP-55,940 and various concentrations of the test compound in a final volume of 200 μL. Assays were incubated at 30° C. for 1 hour. The samples were filtered using Packard Filtermate 196 and Whatman GF/C Filterplates and washed with wash buffer (TME) containing 0.5% BSA. Radioactivity was detected using MicroScint 20 scintillation cocktail added directly to the dried filterplates, and the filterplates were counted using a Packard Instruments Top-Count. Nonspecific binding was assessed using 100 nM CP-55,940. Data collected from three independent experiments performed with duplicate determinations were normalized between 100% and 0% specific binding for [H^3]CP-55,940, determined using buffer and 100 nM CP-55,940. The normalized data was analyzed using a 4 parameter nonlinear logistic equation to yield IC50 values. Data from at least two independent experiments performed in duplicate were used to calculate IC50 values which were convered to Ki values using the assumptions of Cheng and Prusoff, Biochem. Pharmacol., 22:3099 (1973), the entire teachings of which are incorporated herein by reference.
Mouse spleen was used a source of CB2 receptors to assess binding affinity of analogs described in this invention. […]

| Structure (SMILES) | Ki (CB1 receptor) [nM] | Ki (CB2 receptor) [nM] |
| --- | --- | --- |
| CCCC1CCC(C)(c2cc(O)c3c(c2)OC(C)(C)[C@@H]2CC=C(C)C[C@@H]32)CC1 (single isomer, unassigned) [AM408] | 18.3 |  |
| CCC1CCC(C)(c2cc(O)c3c(c2)OC(C)(C)[C@@H]2CC=C(C)C[C@@H]32)CC1 (single isomer, unassigned) [AM405] | 19.1 |  |
| CCC1CCC(C)(c2cc(O)c3c(c2)OC(C)(C)[C@@H]2CC=C(C)C[C@@H]32)CC1 (single isomer, unassigned) [AM406] | 14.5 |  |
| CCCC1CCC(c2cc(O)c3c(c2)OC(C)(C)[C@@H]2CC=C(C)C[C@@H]32)CC1 (stereo partly drawn) | 25.8 | 22.3 |
| CCCC1CCC(C)(c2cc(O)c3c(c2)OC(C)(C)[C@@H]2CC=C(C)C[C@@H]32)CC1 (single isomer, unassigned) [AM407] | 9.1 |  |
| CC1=CC[C@@H]2[C@@H](C1)c1c(O)cc(C3(C)C4CC5CC(C4)CC3C5)cc1OC2(C)C (stereo partly drawn) | 78.2 | 40.3 |
| CCCCCCC1(c2cc(O)c3c(c2)OC(C)(C)[C@@H]2CC=C(C)C[C@@H]32)SCCCS1 | 3.6 |  |
